## Antibody variant affinities, Ab-14 light chain, assay B

Reference: Li et al. 2023, doi:10.1038/s41467-023-39022-2. File: FLAb, binding data.

Target: peptide PDVDLGDISGINAS, taken from heptad repeat 2 (HR2) of SARS-CoV-2 spike.

Ab-14 is the parent antibody, in scFv form: VH, then a (GGGGS)3 linker, then VL. The heavy chain is unchanged in all variants.
VH: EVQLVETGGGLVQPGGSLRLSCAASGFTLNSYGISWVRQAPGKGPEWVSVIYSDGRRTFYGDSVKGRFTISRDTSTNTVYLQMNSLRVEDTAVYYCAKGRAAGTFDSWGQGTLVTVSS
VL: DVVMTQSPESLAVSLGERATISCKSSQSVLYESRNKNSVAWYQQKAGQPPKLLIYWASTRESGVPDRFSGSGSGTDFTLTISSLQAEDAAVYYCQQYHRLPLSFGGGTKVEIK

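Phage display of a naive human antibody library on the peptide gave the parent. These sequences belong to a second round, designed from the earlier measurements on random variants of the parent. Several design methods are mixed in this list. Affinity was read by AlphaSeq, a pooled yeast mating assay with surface-displayed partners. After mating in shaken culture at 30 °C for 16 h, diploids were selected and their barcode pairs sequenced. A regression on co-assayed BCL2-family reference pairs converts the normalised counts of each replicate to an apparent Kd. The assay was run in six technical replicates.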

Changes read parent residue, position, new residue, counted from the first residue of the VL shown. This list holds designs with at most six substitutions. Kd is apparent (estimated from mating counts) and averaged on the log scale over replicates with a signal. Smaller is tighter. Where no diploid with the target was found in any replicate, the entry reads "nd": below detection, most likely a poor binder, though not proof of it. Values of this round are not directly comparable with the first-round values of the same sequences.

The variant S25L+Q27L+Y31Q+W56N gave 690 pM (6 of 6 replicates). With S25L+S26Q+V29N+W56E the result was 610 pM (6 of 6 replicates). With S26Q+V29F+W56G+Q96D the result was 860 pM (6 of 6 replicates). For S25F+L30G+W56N+S58Q+E61M+S62E, the assay gave 7.1 nM (6 of 6 replicates). With E32Y+S33G+K36G+S38F+E61S the result was 38 nM (1 of 6 replicates). The variant S25L+V29Q+K36C+W56N showed 2.8 nM (6 of 6 replicates). With S25L+N35L+W56N the result was 270 pM (6 of 6 replicates).

The variant S25L+W56M+T59Q showed 3.1 nM (6 of 6 replicates). For S28H+L30D+R34W+W56G, the assay gave 12 nM (6 of 6 replicates). For S25L+S26Y+V29T+K36P+W56N, the assay gave 630 pM (6 of 6 replicates). The variant S25C+Q27H+R34Q+W56E showed 1.0 nM (6 of 6 replicates). With K36N+S62K the result was 20 nM (6 of 6 replicates). For S25M+V29T+W56A, the assay gave 620 pM (6 of 6 replicates). The variant S25L+V29M+S33Q+W56N showed 750 pM (6 of 6 replicates).

With S25L+V29Q+W56S+T59Q the result was 930 pM (6 of 6 replicates). The variant K24H+Q27P+V29N+W56N showed 1.3 nM (6 of 6 replicates). The variant S26Y+S28G+W56G+T59L showed 4.5 nM (6 of 6 replicates). The variant S25I+S28A+V29Y+W56Q+S58N+T59Q gave 320 pM (6 of 6 replicates). The variant K24H+Q27P+L30E+W56N+T59Q showed 1.3 nM (6 of 6 replicates). The variant S33Y showed 550 nM (2 of 6 replicates). The variant Y31E+S38N showed 88 nM (4 of 6 replicates).

With S25V+V29D+S38N+W56E the result was 8.5 nM (6 of 6 replicates). For S25L+V29K+W56N+T59Q, the assay gave 4.9 nM (6 of 6 replicates). For S25L+S26R+V29T+W56K, the assay gave 8.4 nM (6 of 6 replicates). For S62P+R99V, the assay gave nd (0 of 6 replicates). The variant Q27V+Y31H showed 560 nM (2 of 6 replicates). The variant S25Q+S26L+W56H+S62D+R99Q gave 1.4 nM (6 of 6 replicates). The variant Y31H+E32D+Q96L gave nd (0 of 6 replicates).

For K24H+S25D+R34E+V39L+E61R, the assay gave 22 nM (1 of 6 replicates). The variant S25M+S38E+S62Q showed 16 nM (5 of 6 replicates). The variant W56Q+Q95P showed nd (0 of 6 replicates). With S25L+W56E+E61M+Q96A the result was 7.1 nM (6 of 6 replicates). The variant S25L+S26E+Q27M+V29E+W56N showed 600 pM (6 of 6 replicates). The variant S25L+Q27E+W56E gave 380 pM (6 of 6 replicates). With N35D+N37S+L100P the result was 230 nM (5 of 6 replicates).

For K24H+Q27P+L30P+W56E+S62E+Q96D, the assay gave 1.1 nM (6 of 6 replicates). The variant Q27I+V29Y+W56E+Q95H showed nd (0 of 6 replicates). With S25L+V29E+W56D+T59Q+E61L the result was 380 pM (6 of 6 replicates). With V29A+R99C the result was 46 nM (6 of 6 replicates). With S25E+Y31F+S33W+W56D the result was 840 pM (6 of 6 replicates). For S25L+S26R+V29T+L30E+K36Q, the assay gave 110 nM (6 of 6 replicates). The variant S25M+W56D+T59Q showed 580 pM (6 of 6 replicates).

The variant L100F+S103V showed nd (0 of 6 replicates). For S25L+K36S+W56N+E61S, the assay gave 11 nM (1 of 6 replicates). The variant S25V+S33G+W56H+S62D showed 1.0 nM (6 of 6 replicates). With S25F+N35T+K36Q+W56N+Q96W the result was 3.3 nM (6 of 6 replicates). For S25L+S26C+V29T+W56G, the assay gave 430 pM (6 of 6 replicates). With S25L+S38N+W56G+E61S the result was 1.9 nM (6 of 6 replicates). The variant S25L+Q27G+V29H+W56D gave 460 pM (6 of 6 replicates).

The variant V29R+R34K+P101K gave 160 nM (1 of 6 replicates). The variant S28P+R34K gave 140 nM (1 of 6 replicates).

The 5 strongest on average among those seen in every replicate, once more:

| changes | apparent Kd | detected |
|---|---|---|
| S25L+N35L+W56N | 270 pM | 6 of 6 |
| S25I+S28A+V29Y+W56Q+S58N+T59Q | 320 pM | 6 of 6 |
| S25L+Q27E+W56E | 380 pM | 6 of 6 |
| S25L+V29E+W56D+T59Q+E61L | 380 pM | 6 of 6 |
| S25L+S26C+V29T+W56G | 430 pM | 6 of 6 |

Nonspecific signal, from three strains lacking the peptide, appeared in 4% of pairings of all light chain designs, centred on 430 nM (5% of these signals below 38 nM); values are not corrected for it. Of ten entries with the parent sequence, four were seen in most replicates (averages 2.2 nM to 240 nM), three in one and three in none, so single entries are noisy. The authors averaged sequences with at least three values out of six and counted those with two or fewer as poor binders.